Activity calls are given as the source filed them. The calls are words filed in the database; no cut-off is given here.
Organism: Rattus norvegicus
Assay: The compound was evaluated for the morphine-like behavioral effects. '--' indicates decrease in the locomotor activity.

## C=CCN1CC[C@]23c4c5ccc(O)c4O[C@H]2C(=O)CC[C@@]3(O)[C@H]1C5
  Activity: Active

Reference: ChEMBL document CHEMBL1123122
